Measured values as given in US20230293565A1, “USE OF WNT/BETA-CATENIN PATHWAY INHIBITORS TO BLOCK REPLICATION OF SARS-COV-2 AND OTHER PATHOGENIC VIRUSES” (THE GOVERNORS OF THE UNIVERSITY OF ALBERTA, priority 2020, published 2023).

Key:
type I (IFNβ) interferon = type: cell-based, human; conditions: A549 treated 24 h, Sendai virus 8 and 16 hours
[1] = test system: SARS-CoV-2 (CANADA/VIDO01/2020 strain); type: cell-based

Row | Compound | production of IFN (type I, IFNβ transcripts) in response to viral infection (type I (IFNβ) interferon) | SARS-CoV-2 replication / infectious virus in media of NHBE cells [1]
1 | Cn1c(=O)c2c(ncn2CC(=O)Nc2ccc(-c3ccccc3)nn2)n(C)c1=O [ETC-1922159] | significantly increased | 
2 | O=C([O-])CCN1C(=O)/C(=C/c2ccc(-c3ccc([N+](=O)[O-])cc3)o2)SC1=S.[K+] [KYA1797K] | significantly increased | no infectious virus was detected
3 | Cc1cc(-c2ncc(CC(=O)Nc3ccc(-c4cnccn4)cn3)cc2C)ccn1 [LGK-974] | significantly increased | 
4 | Cc1cc(/C=C/c2ccc3cc(N(C)C)ccc3[n+]2C)c(C)n1-c1ccccc1 [Pyrvinium] | significantly increased | 
